Measurements published in ChEMBL document CHEMBL3400148, “Structure-based discovery of small molecule hepsin and HGFA protease inhibitors: Evaluation of potency and selectivity derived from distinct binding pockets” (Bioorg Med Chem, 2015).

Molecular target: T1, Suppressor of tumorigenicity 14 protein (Homo sapiens, UniProt Q9Y5Y6)
T1 sequence (Q9Y5Y6 whole entry): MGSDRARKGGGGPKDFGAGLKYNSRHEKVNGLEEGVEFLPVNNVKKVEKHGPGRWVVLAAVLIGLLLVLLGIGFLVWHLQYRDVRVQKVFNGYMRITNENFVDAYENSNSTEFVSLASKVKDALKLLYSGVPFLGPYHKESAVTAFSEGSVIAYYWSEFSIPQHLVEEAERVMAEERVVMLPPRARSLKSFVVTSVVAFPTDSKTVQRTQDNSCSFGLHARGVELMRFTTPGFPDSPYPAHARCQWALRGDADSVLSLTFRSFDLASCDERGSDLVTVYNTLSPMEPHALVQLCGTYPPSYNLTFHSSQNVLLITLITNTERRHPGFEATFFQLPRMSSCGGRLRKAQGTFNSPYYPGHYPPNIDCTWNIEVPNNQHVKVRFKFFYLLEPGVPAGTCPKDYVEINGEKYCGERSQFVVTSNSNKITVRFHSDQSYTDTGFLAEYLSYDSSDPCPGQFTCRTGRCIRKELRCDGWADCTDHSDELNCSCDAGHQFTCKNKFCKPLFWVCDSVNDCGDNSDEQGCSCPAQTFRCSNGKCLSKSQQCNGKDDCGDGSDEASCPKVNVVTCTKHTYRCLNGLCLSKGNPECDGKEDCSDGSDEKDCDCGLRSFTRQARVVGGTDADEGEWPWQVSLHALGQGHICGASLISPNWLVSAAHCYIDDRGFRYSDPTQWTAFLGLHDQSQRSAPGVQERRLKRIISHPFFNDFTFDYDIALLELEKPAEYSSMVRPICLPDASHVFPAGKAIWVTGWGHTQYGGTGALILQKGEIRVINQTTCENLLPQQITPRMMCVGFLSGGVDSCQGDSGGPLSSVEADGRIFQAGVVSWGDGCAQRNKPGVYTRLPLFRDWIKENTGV
Assay: Inhibition of matripase (unknown origin) using Boc-QAR-AMC as substrate incubated for 30 mins prior to substrate addition by fluorescence assay

Ki: 620 nM
SMILES: Cc1ccc(S(=O)(=O)N[C@@H](Cc2cccc(C(=N)N)c2)C(=O)N2CCN(C(=O)OCc3ccccc3)CC2)cc1
